Where two headings read alike, the source gives them in different places.

Series [1] relates to NFSA tumor.
Series [2] relates to NFSA tumor. To be noted: COX-2 inhibitor plus radiation, TCD50 assay.

Take `NS(=O)(=O)c1ccc(-n2nc(C(F)(F)F)cc2-c2ccc(Cl)cc2)cc1`: the “mice died of unknown causes” value in series [1] (COX-2 inhibitor only group) is “Two of eight”; in series [1] (COX-2 inhibitor plus 40 Gy group), “Two of eight”; in series [2] it was “Five of 60”.
